Measurements: PMC7442650, “A machine learning-based chemoproteomic approach to identify drug targets and binding sites in complex proteomes” (Nature Communications, 2020)

Biological target: T1, FPR1 (FK506-binding protein 1, P20081) (Saccharomyces cerevisiae, UniProt P20081)
T1 construct: Cell lysates from at least three independent biological replicates were aliquoted in equivalent volumes containing 100 µg of proteome sample; endogenous in cells; host or cells: S. cerevisiae wild type (Euroscarf), cryo-milled lysate
T1 sequence (P20081 1-114): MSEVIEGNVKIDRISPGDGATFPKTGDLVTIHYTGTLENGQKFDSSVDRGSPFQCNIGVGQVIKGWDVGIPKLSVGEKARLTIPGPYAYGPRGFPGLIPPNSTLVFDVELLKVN
Assay: LiP-Quant, S. cerevisiae lysates (wild type)
Details: Yeast WT; FPR1 peptide _TGDLVTIH_

With `CO[C@H]1C[C@@H]2CC[C@@H](C)[C@@](O)(O2)C(=O)C(=O)N2CCCC[C@H]2C(=O)O[C@H]([C@H](C)C[C@@H]2CC[C@@H](O)[C@H](OC)C2)CC(=O)[C@H](C)/C=C(\C)[C@@H](O)[C@@H](OC)C(=O)[C@H](C)C[C@H](C)/C=C/C=C/C=C/1C` [Rapamycin] the “LiP Score” value was 3.070.
